Test: Refractive index ne at 23° C., reference wavelength 546.1 nm
Assay type: physicochemical

O.O.[Na+].[Na+].[O]=[Mo](=[O])([O-])[O-] [sodium molybdate dihydrate]
ne (refractive index) of aqueous solution 200 g/L: 1.3619

Reference: patent publication US12393007B2, “Method for adapting optical properties of an immersion mixture, and immersion mixtures and components thereof” (Carl Zeiss Microscopy GmbH, priority 2018, dated 2025)
